Consider two compounds from ChEMBL document CHEMBL1122042, “Chemical synthesis and molecular pharmacology of hydroxylated 1-(1-phenylcyclohexyl-piperidine derivatives” (1982).

For test [1], the target named is T1, Opioid receptor (Mus musculus) (UniProt P42866+P32300+P33534). In words: Hill coefficient for binding of [3H]morphine to Opioid receptors.
Test [2] has as its target T1, Opioid receptor (Mus musculus). The test is described as follows: Inhibition of the specific binding of [3H]morphine to Opioid receptors.
The target of test [3] is Muscarinic acetylcholine receptor (Mus musculus) (UniProt Q920H4+Q9ERZ4+P12657+P32211+Q9ERZ3). The test is described as follows: Inhibition of the specific binding of [3H]QNB to Muscarinic acetylcholine receptor.

With `O[C@H]1CC[C@](c2ccccc2)(N2CCCCC2)CC1`, in test [1], the nH amounted to 1. Besides, the K0.5 in test [2] is 17.5 µM; in test [3], greater than 100 µM.

For `O[C@H]1CC[C@@](c2ccccc2)(N2CCCCC2)CC1`, the K0.5 was 100 µM in test [2] and greater than 100 µM in test [3].
